These results are taken from publication PMC4525181, “Structural and dynamic insights into the energetics of activation loop rearrangement in FGFR1 kinase” (Nature Communications, 2015).

By UniProt entry, the sequences of proteins in these tests, tags left out. Residues count along the entry.
UniProt P11362, 458-765 C488A/C584S: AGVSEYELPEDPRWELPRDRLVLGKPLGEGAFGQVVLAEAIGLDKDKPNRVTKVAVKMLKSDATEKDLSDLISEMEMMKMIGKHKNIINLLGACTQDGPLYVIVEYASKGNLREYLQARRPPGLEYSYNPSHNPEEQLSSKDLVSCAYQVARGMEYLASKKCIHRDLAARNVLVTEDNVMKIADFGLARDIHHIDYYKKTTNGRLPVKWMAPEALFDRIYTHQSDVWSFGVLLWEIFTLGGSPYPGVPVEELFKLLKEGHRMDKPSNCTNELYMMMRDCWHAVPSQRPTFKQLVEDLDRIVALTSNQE

In assay [1] the target is T1, FGFR1 kinase domain (Homo sapiens, UniProt P11362, C488A/C584S).
T1 construct: Human FGFR1 consisting of residues Ala458-Glu765; made in house; host or cells: Escherichia coli, co-expressed with PTP1B
Put plainly: Isothermal titration calorimetry (ITC) of inhibitors binding to FGFR1. As to conditions: 298 K. A general note: ITC needs no label: the signal is the heat of the interaction.

In assay [2] the target is T1, FGFR1 kinase domain. Put plainly: SPR kinetic analysis of inhibitors binding to FGFR1 kinase domain. As to conditions: 298 K, pH 7.4, read-out: KD (koff/kon).

pKd: −log10 of the molar value.

As for SU5402, the results for the pKd at FGFR1 kinase domain [1] and at FGFR1 kinase domain [2] were 7.12 and 7.15, respectively.
